Experimental data as given in patent publication US5885797.

Molecular target: Myogenin (full length, mouse) (mouse) (UniProt P12979)

- Myogenin DNA binding (gel shift, B1/B2 E box probe) (fold molar excess): 48
Substance: MBP-I-mfc (from UniProt P0AEX9)
